IC50 data for 31 compounds are collected here from patent publication US9694016B2 (Novartis AG, priority 2013, dated 2017).

Protein sequences, listed by entry. Tags and fused reporters are not part of them.
UniProt P04049, whole entry Y340E/Y341E: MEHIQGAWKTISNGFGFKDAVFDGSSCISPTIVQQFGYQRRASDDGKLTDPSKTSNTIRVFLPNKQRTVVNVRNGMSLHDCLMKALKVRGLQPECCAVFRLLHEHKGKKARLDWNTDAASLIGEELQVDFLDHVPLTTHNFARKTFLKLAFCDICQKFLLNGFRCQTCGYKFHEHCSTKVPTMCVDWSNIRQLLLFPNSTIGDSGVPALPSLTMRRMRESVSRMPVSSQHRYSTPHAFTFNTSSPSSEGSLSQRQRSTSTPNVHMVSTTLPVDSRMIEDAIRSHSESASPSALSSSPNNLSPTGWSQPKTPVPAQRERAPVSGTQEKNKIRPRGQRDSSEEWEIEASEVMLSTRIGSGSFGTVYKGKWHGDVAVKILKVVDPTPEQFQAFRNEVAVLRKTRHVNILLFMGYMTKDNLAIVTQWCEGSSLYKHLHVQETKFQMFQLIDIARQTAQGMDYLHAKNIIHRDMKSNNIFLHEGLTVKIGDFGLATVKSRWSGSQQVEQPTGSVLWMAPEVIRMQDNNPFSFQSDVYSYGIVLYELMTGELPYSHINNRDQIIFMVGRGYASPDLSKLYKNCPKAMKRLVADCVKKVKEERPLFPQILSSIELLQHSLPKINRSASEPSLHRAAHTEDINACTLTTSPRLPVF

Molecules are shown by their SMILES. pIC50: −log10 of the molar value.

The first assay has as its target C-Raf FL (full-length C-Raf protein, Y340E and Y341E activating mutations) (Homo sapiens (Human), UniProt P04049, Y340E/Y341E). The class given is biochemical. As to conditions: AlphaScreen, 60 min pre-incubation, 1 hour reaction; read-out: c-Raf FL IC-50. A general note: Alpha assays give light when donor and acceptor beads are brought close together.
Regarding `Cc1ncc(NC(=O)c2cccc(S(C)(=O)=O)c2)cc1-c1cc(N2CCOCC2)n(C)c(=O)c1` [Example 509, N-(1′,2-dimethyl-6′-morpholino-2′-oxo-1′,2′-dihydro-[3,4′-bipyridin]-5-yl)-3-(methylsulfonyl)benzamide], the pIC50 is 8.42. On to `COc1ncc(-c2cc(NC(=O)c3ccnc(S(C)(=O)=O)c3)ccc2C)nc1N1CCOCC1` [Example 546, N-(3-(5-methoxy-6-morpholinopyrazin-2-yl)-4-methylphenyl)-2-(methylsulfonyl)isonicotinamide], for which the pIC50 was 9.10.

For `CCNc1nc(-c2cc(NC(=O)c3ccnc(C(F)(F)CC)c3)ccc2C)cc(N2CCOCC2)n1` [Example 706, 2-(1,1-difluoropropyl)-N-(3-(2-(ethylamino)-6-morpholinopyrimidin-4-yl)-4-methylphenyl)isonicotinamide], the pIC50 is 9.52. Regarding `Cc1ccc(NC(=O)c2ccnc(C(C)(C)C#N)c2)cc1-c1cc(N2CC3CC(C2)O3)c(=O)n(C)c1` [Example 465, N-(3-(5-(6-oxa-3-azabicyclo[3.1.1]heptan-3-yl)-1-methyl-6-oxo-1,6-dihydropyridin-3-yl)-4-methylphenyl)-2-(2-cyanopropan-2-yl)isonicotinamide], the pIC50 was 7.82. On to `Cc1ccc(C(=O)Nc2cccc(OC(F)(F)F)c2)cc1-c1cc(N2CCOCC2)c(=O)n(C)c1` [Example 441, 4-methyl-3-(1-methyl-5-morpholino-6-oxo-1,6-dihydropyridin-3-yl)-N-(3-(trifluoromethoxy)phenyl)benzamide], for which the pIC50 was 8.03.

Regarding `CCOc1nnc(-c2cc(NC(=O)c3cccc(C(F)(F)F)c3)cnc2C)cc1N1CCOC[C@@H]1C` [Example 571, (S)—N-(5-(6-ethoxy-5-(3-methylmorpholino)pyridazin-3-yl)-6-methylpyridin-3-yl)-3-(trifluoromethyl)benzamide], the pIC50 is 9.10. The same measure, in the same setting: the figure for `Cc1ncc(C(=O)Nc2cccc(C(C)(C)C#N)c2)cc1-c1cc(N2CCOCC2)c(=O)n(C)c1` [Example 444, N-(3-(2-cyanopropan-2-yl)phenyl)-1′,2-dimethyl-5′-morpholino-6′-oxo-1′,6′-dihydro-[3,3′-bipyridine]-5-carboxamide] is 7.84; for `CCOc1nnc(-c2cc(NC(=O)c3cccc(S(C)(=O)=O)c3)ccc2C)cc1N1CCOCC1` [Example 559, N-(3-(6-ethoxy-5-morpholinopyridazin-3-yl)-4-methylphenyl)-3-(methylsulfonyl)benzamide] it is 9.52. Regarding `Cc1ncc(NC(=O)c2cccc(C(F)(F)F)c2)cc1-c1cc(N2CCOCC2)nc(N(C)C)n1` [Example 760, N-(5-(2-(dimethylamino)-6-morpholinopyrimidin-4-yl)-6-methylpyridin-3-yl)-3-(trifluoromethyl)benzamide], the pIC50 was 8.48. For the compound `CCNc1nc(-c2cc(NC(=O)c3ccnc(C4(C#N)CC4)c3)ccc2C)cc(N2CCOCC2)n1` [Example 708, 2-(1-cyanocyclopropyl)-N-(3-(2-(ethylamino)-6-morpholinopyrimidin-4-yl)-4-methylphenyl)isonicotinamide], the pIC50 is 10.00. In the case of `Cc1ccc(NC(=O)c2cnnc(C(C)(C)C#N)c2)cc1-c1cc(N2CCOCC2)n(C)c(=O)c1` [Example 489, 6-(2-cyanopropan-2-yl)-N-(4-methyl-3-(1-methyl-6-morpholino-2-oxo-1,2-dihydropyridin-4-yl)phenyl)pyridazine-4-carboxamide], the pIC50 was 9.10. On the same count and under the same terms, in the case of `Cc1ccc(NC(=O)c2ccnc(C(F)F)c2)cc1-c1cc(N2CCOCC2)nc(N2C(=O)OC[C@@H]2C)n1` [Example 785, (S)-2-(difluoromethyl)-N-(4-methyl-3-(2-(4-methyl-2-oxooxazolidin-3-yl)-6-morpholinopyrimidin-4-yl)phenyl)isonicotinamide] it was 8.51; in that of `Cc1ccc(NC(=O)c2ccnc(C(C)(F)F)c2)cc1-c1cc(N2CCOCC2)c(OCCO)nn1` [Example 587, 2-(1,1-difluoroethyl)-N-(3-(6-(2-hydroxyethoxy)-5-morpholinopyridazin-3-yl)-4-methylphenyl)isonicotinamide], 9.52. For the compound `CCOc1nnc(-c2cc(NC(=O)c3ccnc(C(C)(C)C#N)c3)ccc2C)cc1N1CCOC[C@H]1C` [Example 624, (R)-2-(2-cyanopropan-2-yl)-N-(3-(6-ethoxy-5-(3-methylmorpholino)pyridazin-3-yl)-4-methylphenyl)isonicotinamide], the pIC50 is 8.82.

Staying with this assay, now noted: AlphaScreen, 60 min pre-incubation, reaction 1 hour at room temperature; read-out: c-Raf FL IC-50.
`CCOc1ccc(-c2cc(NC(=O)c3ccnc(C(C)(F)F)c3)cnc2C)nc1N1CCOCC1` [Example 1028, 2-(1,1-difluoroethyl)-N-(5-ethoxy-2′-methyl-6-morpholino-[2,3′-bipyridin]-5′-yl)isonicotinamide]: the pIC50 is 8.80. Still for that read-out and setting: in the case of `Cc1ncc(NC(=O)c2cc(C(C)(F)F)ccn2)cc1-c1cnc(OCCO)c(N2CCOCC2)c1` [Example 974, 4-(1,1-difluoroethyl)-N-(6′-(2-hydroxyethoxy)-2-methyl-5-morpholino-[3,3′-bipyridin]-5-yl)picolinamide] it was 9.02; in that of `Cc1ncc(NC(=O)c2cc(C(C)(C)C#N)ccn2)cc1-c1cnc(OC(F)F)c(N2CCOCC2)c1` [Example 981, 4-(2-cyanopropan-2-yl)-N-(6′-(difluoromethoxy)-2-methyl-5′-morpholino-[3,3′-bipyridin]-5-yl)picolinamide], 8.50; in that of `Cc1ncc(NC(=O)c2cccc(C(F)(F)F)c2)cc1-c1cc(N2CCOCC2)c(OCC(F)F)nn1` [Example 918, N-(5-(6-(2,2-difluoroethoxy)-5-morpholinopyridazin-3-yl)-6-methylpyridin-3-yl)-3-(trifluoromethyl)benzamide], 9.43. The same measure, in the same setting: the figure for `Cc1ccc(NC(=O)c2ccnc(C3CC3)c2)cc1-c1cc(N2CCOCC2)nc(N2CC(O)C2)c1` [Example 1068, 2-cyclopropyl-N-(3-(2-(3-hydroxyazetidin-1-yl)-6-morpholinopyridin-4-yl)-4-methylphenyl)isonicotinamide] is 9.85; for `Cc1ncc(NC(=O)c2ccnc(C(C)(F)F)c2)cc1-c1cc(N2CCOCC2)nc(N2CC(C)(O)C2)c1` [Example 1105, 2-(1,1-difluoroethyl)-N-(2′-(3-hydroxy-3-methylazetidin-1-yl)-2-methyl-6′-morpholino-[3,4′-bipyridin]-5-yl)isonicotinamide] it is 8.92; for `CCN1CCN(c2cc(C(=O)Nc3cnc(C)c(-c4cc(N5CCOCC5)nc(N5CC(O)C5)c4)c3)cc(C(F)(F)F)c2)CC1` [Example 1087, 3-(4-ethylpiperazin-1-yl)-N-(2′-(3-hydroxyazetidin-1-yl)-2-methyl-6′-morpholino-[3,4′-bipyridin]-5-yl)-5-(trifluoromethyl)benzamide] it is 8.28. Still for that read-out and setting: in the case of `Cc1ncc(NC(=O)c2ccnc(C(F)F)c2)cc1-c1cc(N2CCOCC2)c(OC(C)C)nn1` [Example 913, 2-(difluoromethyl)-N-(5-(6-isopropoxy-5-morpholinopyridazin-3-yl)-6-methylpyridin-3-yl)isonicotinamide] it was 9.16; in that of `Cc1ncc(NC(=O)c2ccnc(C(C)(F)F)c2)cc1-c1cc(NCCO)nc(N2CCOCC2)c1` [Example 1041, 2-(1,1-difluoroethyl)-N-(2′-((2-hydroxyethyl)amino)-2-methyl-6′-morpholino-[3,4′-bipyridin]-5-yl)isonicotinamide], 9.13.

For the compound `Cc1ccc(NC(=O)c2ccnc(S(C)(=O)=O)c2)cc1-c1cc(N2CCOCC2)nc(N2CC(O)C2)c1` [Example 1097, N-(3-(2-(3-hydroxyazetidin-1-yl)-6-morpholinopyridin-4-yl)-4-methylphenyl)-2-(methylsulfonyl)isonicotinamide], the pIC50 is 9.02.

Still in this assay, the particulars now being: Table 2; AlphaScreen, 1 hour reaction; read-out: c-Raf FL IC-50.
For the compound `Cc1nc(C(=O)Nc2cnc(C)c(-c3cc(N4CCOCC4)c(=O)n(C)c3)c2)c(C)o1` [Example 383, N-(1′,2-dimethyl-5′-morpholino-6′-oxo-1′,6′-dihydro-[3,3′-bipyridin]-5-yl)-2,5-dimethyloxazole-4-carboxamide], the pIC50 is 6.70.

On to `Cn1cc(-c2cc(NC(=O)c3ccnc(C(F)(F)F)c3)cnc2Cl)cc(N2CCOCC2)c1=O` [Example 404, N-(2-chloro-1′-methyl-5′-morpholino-6′-oxo-1′,6′-dihydro-[3,3′-bipyridin]-5-yl)-2-(trifluoromethyl)isonicotinamide], for which the pIC50 was 8.92. On the same count and under the same terms, in the case of `Cc1ccc(NC(=O)c2cccc(C(F)(F)F)c2)cc1-c1cc(N2CCOCC2)nc(NC(CO)CO)n1` [Example 39, N-(3-(2-((1,3-dihydroxypropan-2-yl)amino)-6-morpholinopyrimidin-4-yl)-4-methylphenyl)-3-(trifluoromethyl)benzamide] it was 9.52; in that of `CCC(F)(F)c1cc(C(=O)Nc2ccc(C)c(-c3cc(N4CCOCC4)c(=O)n(C)c3)c2)ccn1` [Example 341, 2-(1,1-difluoropropyl)-N-(4-methyl-3-(1-methyl-5-morpholino-6-oxo-1,6-dihydropyridin-3-yl)phenyl)isonicotinamide], 9.30; in that of `CCOc1ncc(-c2cc(NC(=O)c3cnnc(C(C)(C)F)c3)ccc2C)cc1N1CCOCC1` [Example 304, N-(3-(6-ethoxy-5-morpholinopyridin-3-yl)-4-methylphenyl)-6-(2-fluoropropan-2-yl)pyridazine-4-carboxamide], 9.52. On the same count and under the same terms, the figure for `CCCN(C(=O)c1cccc(C(F)(F)F)c1)c1cnc(C)c(-c2cnc(OC3CCOCC3)c(N3CCOCC3)c2)c1` [Example 330, N-(2-methyl-5′-morpholino-6′-((tetrahydro-2H-pyran-4-yl)oxy)-[3,3′-bipyridin]-5-yl)-N-propyl-3-(trifluoromethyl)benzamide] is 5.89; for `Cc1ncc(NC(=O)c2cccc(C(F)(F)F)c2)cc1-c1cnc(OC(F)F)c(N2CCOCC2)c1` [Example 224, N-(6′-(difluoromethoxy)-2-methyl-5′-morpholino-[3,3′-bipyridin]-5-yl)-3-(trifluoromethyl)benzamide] it is 9.05.
